Apparent affinities of Ab-95 variants for a coronavirus HR2 peptide

Source: Engelhart et al. 2022 (doi:10.1038/s41597-022-01779-4), MIT Lincoln Laboratory and A-Alpha Bio; data file from the FLAb repository.

The target is the same throughout: PDVDLGDISGINAS, from the HR2 region of SARS-CoV-2 spike.

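The parent was found by panning a naive human phage display library on the peptide. In library AAYL52, one, two or three CDR residues were substituted; doubles and triples were drawn at random. The assay is AlphaSeq: two haploid yeast populations carry antibody and antigen on their surface. Binding brings cells together so that they mate, and sequencing counts the barcode pairs among the diploids. A regression on co-assayed BCL2-family reference pairs converts the normalised counts of each replicate to an apparent Kd. There are three technical replicates.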

Ab-95 is the parent antibody, in scFv form: VH, then three GGGGS repeats, then VL. The heavy chain is unchanged in all variants.
VH: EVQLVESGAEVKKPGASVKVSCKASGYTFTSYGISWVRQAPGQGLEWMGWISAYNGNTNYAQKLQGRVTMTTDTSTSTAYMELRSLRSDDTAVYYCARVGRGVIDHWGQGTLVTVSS
VL: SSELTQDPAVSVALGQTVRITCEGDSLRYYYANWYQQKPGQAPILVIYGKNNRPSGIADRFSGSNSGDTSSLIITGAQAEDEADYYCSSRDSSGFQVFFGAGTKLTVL

Substitutions are numbered in sequence along the VL above, starting at 1 (not Kabat).
Scale: log10 of Kd in nM, estimated from mating counts; low values are strong binders.
A pair that was not seen in that replicate is written "ND"; this usually means weak binding, but a binder can also be missed.
In this assay the parent's reference entry averaged 2.31; its copy inside this library read 2.25.
Background: pairings of library AAYL52 with three empty control strains gave a value in 28% of cases (median 3.91, 5th percentile 2.90). Values in that range, when seen in few replicates, are hard to tell from nonspecific mating. Also given: how often the same scFv was detected with the empty control strains, with their mean in brackets.

{"changes": "N33M S92D S93V", "replicates, log10 nM": "3.31 5.58 ND", "signal with controls": "4/9 (4.36)"}
{"changes": "Y29H G94P V97M", "replicates, log10 nM": "3.80 4.10 ND", "signal with controls": "4/9 (4.40)"}
{"changes": "N33K S55L V97T", "replicates, log10 nM": "ND ND ND", "signal with controls": "0/9"}
{"changes": "G49Y S89N G94Q", "replicates, log10 nM": "ND 4.20 ND", "signal with controls": "2/9 (4.78)"}
{"changes": "A32R N33R S89W", "replicates, log10 nM": "3.86 ND 3.91", "signal with controls": "3/9 (3.87)"}
{"changes": "S26K V97S F98N", "replicates, log10 nM": "ND 5.23 4.35", "signal with controls": "2/9 (3.77)"}
{"changes": "S26A Y31F V97M", "replicates, log10 nM": "3.58 3.74 4.54", "signal with controls": "2/9 (4.18)"}
{"changes": "E23F A32G S92M", "replicates, log10 nM": "2.84 2.83 ND", "signal with controls": "3/9 (4.24)"}
{"changes": "G49I S92L", "replicates, log10 nM": "4.74 ND ND", "signal with controls": "3/9 (3.80)"}
{"changes": "Y29G D91V", "replicates, log10 nM": "5.43 ND ND", "signal with controls": "1/9 (5.51)"}
{"changes": "D25V N52F V97Y", "replicates, log10 nM": "3.05 2.85 2.48", "signal with controls": "4/9 (3.96)"}
{"changes": "Y29N K50Y S92Y", "replicates, log10 nM": "2.20 2.78 1.55", "signal with controls": "4/9 (3.25)"}
{"changes": "R28F N51D R53K", "replicates, log10 nM": "3.52 3.35 4.33", "signal with controls": "2/9 (4.12)"}
{"changes": "D25M R53H S89C", "replicates, log10 nM": "3.35 3.41 2.66", "signal with controls": "1/9 (4.63)"}
{"changes": "N33V", "replicates, log10 nM": "3.42 ND ND", "signal with controls": "2/9 (3.99)"}
{"changes": "P54A S93P Q96L", "replicates, log10 nM": "2.69 2.61 2.43", "signal with controls": "2/9 (3.95)"}
{"changes": "N33C N52W F95C", "replicates, log10 nM": "ND 4.17 3.62", "signal with controls": "3/9 (3.60)"}
{"changes": "S26M N33Q G94L", "replicates, log10 nM": "3.51 3.13 3.31", "signal with controls": "2/9 (3.69)"}
{"changes": "E23F R28N G49V", "replicates, log10 nM": "5.16 4.52 ND", "signal with controls": "3/9 (4.14)"}
{"changes": "S92F S93W", "replicates, log10 nM": "2.07 2.10 1.85", "signal with controls": "5/9 (3.69)"}
{"changes": "R53S P54G S92L", "replicates, log10 nM": "3.09 3.49 3.19", "signal with controls": "3/9 (3.84)"}
{"changes": "R53K F98Y", "replicates, log10 nM": "2.66 2.43 3.23", "signal with controls": "4/9 (3.93)"}
{"changes": "S26L S89A S93R", "replicates, log10 nM": "3.54 4.50 2.55", "signal with controls": "4/9 (3.63)"}
{"changes": "E23T G24A S55F", "replicates, log10 nM": "2.60 2.44 2.15", "signal with controls": "4/9 (4.28)"}
{"changes": "N33C G94R", "replicates, log10 nM": "ND ND ND", "signal with controls": "0/9"}
{"changes": "E23D A32H V97C", "replicates, log10 nM": "3.28 4.16 ND", "signal with controls": "3/9 (3.80)"}
{"changes": "D25M Y30V N33I", "replicates, log10 nM": "3.14 3.27 2.89", "signal with controls": "4/9 (4.49)"}
{"changes": "N52I P54Y F95R", "replicates, log10 nM": "3.30 2.53 3.38", "signal with controls": "0/9"}
{"changes": "Y30P N33T N51Q", "replicates, log10 nM": "3.50 2.88 3.74", "signal with controls": "3/9 (3.66)"}
{"changes": "N52Q R53H S92A", "replicates, log10 nM": "2.46 2.24 1.99", "signal with controls": "1/9 (3.89)"}